Measurements taken from PubChem BioAssay (NCATS).
“And” between values parts separate entries of the source, which are not always exact repeats. Equal values may be shown once. Only a part is listed here, and it is no random draw. Results filed as inconclusive are left out. The source made the active and inactive calls. Unless noted, calls follow the shape of the full dose curve.

Chains of the proteins cited; added tags and fusions are not shown.
UniProt O15648, whole entry: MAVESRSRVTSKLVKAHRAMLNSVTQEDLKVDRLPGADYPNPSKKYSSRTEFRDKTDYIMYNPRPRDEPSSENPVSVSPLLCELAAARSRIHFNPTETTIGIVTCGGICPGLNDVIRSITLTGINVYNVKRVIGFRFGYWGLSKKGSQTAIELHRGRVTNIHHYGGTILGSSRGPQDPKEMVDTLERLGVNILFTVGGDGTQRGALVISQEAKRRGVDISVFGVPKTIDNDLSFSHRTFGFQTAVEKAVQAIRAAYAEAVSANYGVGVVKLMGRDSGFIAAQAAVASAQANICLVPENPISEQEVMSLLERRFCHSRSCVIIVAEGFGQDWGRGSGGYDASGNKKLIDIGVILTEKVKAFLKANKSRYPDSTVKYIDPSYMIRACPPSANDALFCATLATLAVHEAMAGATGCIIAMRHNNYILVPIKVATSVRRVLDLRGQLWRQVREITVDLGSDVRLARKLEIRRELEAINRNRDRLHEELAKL
UniProt O94782, whole entry, looked up: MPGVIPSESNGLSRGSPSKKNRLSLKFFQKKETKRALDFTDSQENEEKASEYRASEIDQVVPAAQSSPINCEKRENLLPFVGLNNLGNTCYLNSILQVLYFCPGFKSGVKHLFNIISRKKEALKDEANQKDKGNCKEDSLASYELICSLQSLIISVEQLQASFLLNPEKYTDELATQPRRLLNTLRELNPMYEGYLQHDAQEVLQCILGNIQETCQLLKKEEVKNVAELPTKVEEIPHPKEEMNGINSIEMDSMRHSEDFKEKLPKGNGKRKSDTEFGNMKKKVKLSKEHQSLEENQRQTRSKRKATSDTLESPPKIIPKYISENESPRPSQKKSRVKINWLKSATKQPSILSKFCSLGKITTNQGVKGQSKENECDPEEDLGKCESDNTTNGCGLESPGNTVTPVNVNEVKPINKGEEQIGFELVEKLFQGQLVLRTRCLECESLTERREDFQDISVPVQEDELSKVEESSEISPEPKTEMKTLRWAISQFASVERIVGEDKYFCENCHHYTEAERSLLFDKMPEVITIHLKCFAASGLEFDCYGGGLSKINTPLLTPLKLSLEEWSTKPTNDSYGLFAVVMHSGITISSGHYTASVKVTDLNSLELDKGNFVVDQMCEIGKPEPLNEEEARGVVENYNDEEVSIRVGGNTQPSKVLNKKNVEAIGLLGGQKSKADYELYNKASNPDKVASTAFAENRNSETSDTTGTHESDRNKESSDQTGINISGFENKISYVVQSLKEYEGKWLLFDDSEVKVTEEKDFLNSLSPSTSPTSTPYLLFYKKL
UniProt Q03181, whole entry: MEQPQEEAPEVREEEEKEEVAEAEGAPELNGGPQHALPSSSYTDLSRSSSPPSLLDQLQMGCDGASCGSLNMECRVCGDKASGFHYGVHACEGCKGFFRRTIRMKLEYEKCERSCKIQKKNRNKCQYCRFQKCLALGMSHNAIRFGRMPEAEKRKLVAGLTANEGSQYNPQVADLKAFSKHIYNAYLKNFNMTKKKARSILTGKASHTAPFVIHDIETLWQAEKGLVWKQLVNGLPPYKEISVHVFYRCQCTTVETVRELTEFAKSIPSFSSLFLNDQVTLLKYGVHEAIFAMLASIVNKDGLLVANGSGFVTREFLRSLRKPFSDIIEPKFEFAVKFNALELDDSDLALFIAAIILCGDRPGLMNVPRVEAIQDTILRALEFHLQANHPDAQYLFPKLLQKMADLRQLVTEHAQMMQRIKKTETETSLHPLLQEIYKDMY

Columns and labels:
[1] = qHTS Assay for Identification of Small Molecule Inducers of Hypoxia Response (AID 2120; active = well fitted curve in the direction sought with a large enough effect in the signal ratio, with a control signal flat, not every such curve was filed as active; the % refers to the signal ratio; also: 0% is about no effect); conditions: hypoxia response reporter cells, beta-lactamase ratio readout; at 104 µM (top of the series)
Procedure, shortened: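 HRE-bla ME-180, 2500 cells/well, 0.5% dialyzed FBS medium; cpd titration, 17 h 37 degrees C; CCF4 2.5 h RT; Ex 405, Em 460/530 ratio -> %Activity, AC50.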

[2] = target: ATP-dependent 6-phosphofructokinase (Trypanosoma brucei brucei) (UniProt O15648); assay: qHTS Assay to Find Inhibitors of T. brucei phosphofructokinase: hit validation (AID 492961; active = well fitted curve in the direction sought with a large enough effect; an effect the other way counts as inactive or inconclusive;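 also: luminescence reports ADP formed as PFK phosphorylates fructose-6-phosphate with ATP; % is scaled to controls: 0 for no effect and ±100 for the full control effect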); conditions: T. brucei PFK, ADP-Glo luminescence; at 51.4 µM (top of the series)
Procedure, shortened: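 ADP-Glo luminescence read-out of ADP formed by 1.25 nM PFK from 0.1 mM ATP and 0.5 mM F6P (TEA pH 8.0, 45 min, RT). Compounds titrated; activity normalized to no-enzyme and full-enzyme controls.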

[3] = target: Ubiquitin carboxyl-terminal hydrolase 1 (Homo sapiens) (UniProt O94782); assay: Inhibitors of USP1/UAF1: Pilot qHTS (AID 504865; active = well fitted curve in the direction sought with a large enough effect; an effect the other way counts as inactive or inconclusive;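 also: rhodamine fluorescence freed from ubiquitin-rhodamine substrate followed over time; top concentration of the series differs between compounds; % is scaled to controls: 0 for no effect and ±100 for the full control effect; nearly all actives have a fitted effect of over 35% in size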); conditions: purified USP1/UAF1, Ub-rhodamine cleavage fluorescence; at 114 µM (top of the series)
[4] = target: Peroxisome proliferator-activated receptor delta (Homo sapiens) (UniProt Q03181); assay: qHTS assay for small molecule agonists of peroxisome proliferator-activated receptor delta signaling (AID 588534); conditions: HEK293T PPARdelta-UAS-bla, beta-lactamase ratio, 18 h; at 76.7 µM (top of the series);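 also: 0% = DMSO basal wells and 100% = positive control agonist at 10 µM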
[5] = target: Peroxisome proliferator-activated receptor gamma (Homo sapiens) (UniProt P37231); assay: qHTS assay for small molecule antagonists of peroxisome proliferator-activated receptor gamma signaling (AID 588537; active = well fitted inhibition curve with a large enough effect in the signal ratio, with a control signal flat, not every such curve was filed as active; the % refers to the signal ratio;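 also: reporter cells co-stimulated with 50 nM rosiglitazone agonist during compound treatment; % of control where 0% means no effect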); conditions: HEK293 PPARg-UAS-bla, beta-lactamase ratio, antagonist mode; at 76.8 µM (top of the series)
Procedure, shortened: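 Cell-based beta-lactamase assay; GW9662 served as the antagonist control. Stimulation used rosiglitazone, final 50 nM, 16 h, 37 C.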

[6] = target: Glucocorticoid receptor (Homo sapiens) (UniProt P04150); assay: qHTS assay for small molecule agonists of glucocorticoid receptor signaling (AID 588532; active = well fitted curve in the direction sought with a large enough effect in the signal ratio, with a control signal flat; the % refers to the signal ratio;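 also: 100% = dexamethasone at 0.1 µM and 0% = DMSO only wells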); conditions: HeLa MMTV-bla, beta-lactamase ratio, agonist, 18 h; hits give high values
[7] = target: Glucocorticoid receptor (Homo sapiens) (UniProt P04150); assay: qHTS assay for small molecule antagonists of glucocorticoid receptor signaling (AID 588533; active = well fitted inhibition curve with a large enough effect in the signal ratio, with a control signal flat, not every such curve was filed as active; the % refers to the signal ratio;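 also: cells stimulated with 2 nM dexamethasone as agonist; % is scaled to controls: 0 for no effect and ±100 for the full control effect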); conditions: HeLa MMTV-bla, GRE beta-lactamase ratio, antagonist mode, 18 h; at 76.8 µM (top of the series)
[8] = target: Peroxisome proliferator-activated receptor delta (Homo sapiens) (UniProt Q03181); assay: qHTS assay for small molecule antagonists of peroxisome proliferator-activated receptor delta signaling (AID 588535; active = well fitted inhibition curve with a large enough effect in the signal ratio, with a control signal flat, not every such curve was filed as active; the % refers to the signal ratio); conditions: HEK293T PPARd-UAS-bla, beta-lactamase FRET ratio, 18 h; at 76.7 µM (top of the series)
[9] = target: Peroxisome proliferator-activated receptor gamma (Homo sapiens) (UniProt P37231); assay: qHTS assay for small molecule agonists of peroxisome proliferator-activated receptor gamma signaling (AID 588536; active = well fitted curve in the direction sought with a large enough effect in the signal ratio, with a control signal flat, not every such curve was filed as active; the % refers to the signal ratio;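 also: 0% = DMSO basal wells and 100% = rosiglitazone at 2 µM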); conditions: HEK293 PPARg-UAS-bla, beta-lactamase ratio, 16 h, percent of rosiglitazone response, DMSO as zero; at 76.7 µM (top of the series)
Procedure, shortened: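 Cells were plated and held 6–6.5 h at 37 C, then compounds were added as a titration series. After a further 16 h, CCF4 dye was loaded for 2 h at room temperature and emission at 460/530 nm recorded.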

[10] = target: Vitamin D3 receptor (Homo sapiens) (UniProt P11473); assay: qHTS assay for small molecule antagonists of vitamin D receptor signaling (AID 588541); conditions: HEK293T VDR-UAS-bla, beta-lactamase ratio, antagonist mode; at 76.7 µM (top of the series);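 also: receptor activated by calcitriol during compound treatment; % is scaled to controls: 0 for no effect and ±100 for the full control effect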
Procedure, shortened: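 Antagonist-mode beta-lactamase reporter assay: HEK293T VDR-UAS-bla cells were exposed to titrated compound alongside 1-alpha,25-dihydroxyvitamin D3 at 3 nM final for 16 h. Values were normalized to the 50 nM agonist control and DMSO basal, with IC50 and efficacy from Hill equation fits.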

CN(CCCl)CCCl
inactive: activation [1] 0.604% | activity change, negative = inhibition [2] -16.8% | activity change, negative = inhibition [3] -6.03% and -4.27% | activation [4] -7.64% | activity, negative = inhibition [5] -17.1%

O=[N+]([O-])C(Cl)(Cl)Cl
inactive: activation [1] -0.604% | activation [6] 20.3% and -1.72% | activity change, negative = inhibition [7] 13.8% and -12.8% | activation [4] -0.919% and 1.11% | activity change, negative = inhibition [8] -4.32% and 17.1% | activation [9] 1.45% and -3.78% | activity, negative = inhibition [5] 5.6% | activity change, negative = inhibition [10] 8.91% and 0.889%

CCC(=O)N(c1ccccc1)C1CCN(CCc2ccccc2)CC1
inactive: activity change, negative = inhibition [2] -7.51%
